Assay outcomes (PubChem BioAssay)
PDI inh = PDI (human) enzyme inhibition; inhibition, % at 10 µM; P07237; AID 588391; 350,000 compounds, 0.052% hits; PDI insulin aggregation turbidity, A650, 90 min;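 active = mean inhibition across replicates of 30% or more, whatever share of single replicates reach that level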
PglD DTNB = PglD (C. jejuni) enzyme inhibition | purified PglD enzyme, DTNB colorimetric CoA detection | inhibition, % at 12.5 µM | 360,000 compounds, 0.098% hits | AID 602405; in the data active = inhibition above about 16%, passing the limit was not always enough
FGF22 binding = binders of recombinant human FGF22 by thermal shift | activity (Tm shift, normalised), % at 9.99 µM | SYPRO orange fluorescence; percent of sucrose octasulfate shift, DMSO zero | AID 651658 | Q9HCT0 | 340,000 compounds, 1.5% hits;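 active = mean Tm shift, scaled 0 neutral to 100 positive control, at about 1.3% or above, every replicate too, limit read from the data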
ARNT-TACC3 inh = disrupts binding between human ARNT and TACC3 | inhibition, % at 9.99 µM | AID 623870 | AlphaScreen His-ARNT PAS-B/GST-TACC3 binding, luminescence; TACC3 fragment carries E629A point mutation | Q9Y6A5 | 390,000 compounds, 0.66% hits;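 active = mean inhibition of replicates at least 50% and at least half of replicates each reaching 50%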;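 note: 0% = complete ARNT plus TACC3 wells and 100% = ARNT alone without TACC3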
ERp5 block = ERp5 (human) disulfide isomerase inhibition; ERp5 insulin aggregation, absorbance 650 nm, 90 min; inhibition, % at 9.99 µM; 350,000 compounds, 0.05% hits;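 active = mean replicate inhibition above about 25%, with every replicate also reaching it, limit read from the data, passing the limit was not always enough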
Yeast UUG start-1 = modulators of yeast start codon fidelity, primary screen, whole organism, S. cerevisiae, single point, plate reader; S. cerevisiae UUG-firefly luciferase reporter, luminescence/redox ratio; activity score, % at 18.7 µM; actives 0.13% (n = 350,000); AID 602363, 2012;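 active = replicate mean at a twofold rise or more, about +100% in these data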;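 also: firefly luciferase made from a UUG start codon reports start codon fidelity; reporter light over untreated wells divided by growth signal over untreated wells; some hits fall short of that in this replicate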
Yeast UUG start-2 = yeast start codon fidelity modulation | 540 tested, under 10 active | AID 652061 | activation, % at 38 µM | S. cerevisiae UUG-start firefly luciferase, luminescence, 4 h; 100% means double the DMSO signal | shares compounds with Yeast UUG start-1;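 active = signal increase whose fitted curve reaches an absolute level of 40 at a concentration under 10 µM; inactive = activity opposite to the expected increase, or the rest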
* hit, by the source's call; i = inactive; x = no result. Hits are enriched below; roughly 1.9% of the tested compounds scored in any of these assays.

#1 O=C(/C=C\c1ccco1)Nc1nc(-c2ccccc2)cs1
#2 COc1cc(SC)ccc1C(=O)Nc1ccccc1C#N
#3 COc1cc(SC)ccc1C(=O)Nc1ccncc1
#4 CC(C)c1cn(CC[C@H]2CC[C@H](N)[C@@H](CO)O2)nn1
#5 CN(C)Cc1cn(CC[C@@H]2CC[C@@H](N)[C@H](CO)O2)nn1
#6 CC(=O)NCCC(=O)Nc1ccc(C)c(F)c1

| assay / entry | 1 | 2 | 3 | 4 | 5 | 6 |
| --- | --- | --- | --- | --- | --- | --- |
| PDI inh | 19.6 | 10.3 | -7.6 | x | x | -3.9 |
| PglD DTNB | x | 3.0 | x | -1.1 | 3.9 | 1.3 |
| FGF22 binding | 0.4 | x | 0.1 | 0.1 | 0.1 | x |
| ARNT-TACC3 inh | -1.6 | -1.3 | -6.1 | -22.2 | 9.4 | -1.6 |
| ERp5 block | 4.0 | x | 0.2 | -3.6 | -3.6 | x |
| Yeast UUG start-1 | x | 500.5* | x | 134.2* | 7.6 | -9.4 |
| Yeast UUG start-2 | x | 4.2 | x | i | x | x |

#7 CC(=O)Nc1ccc(S(=O)(=O)NCCC(=O)Nc2ccc(C)c(F)c2)cc1
#8 CCN(CC)S(=O)(=O)c1ccc(C(=O)Nc2cc(C)cc(C)c2)cc1
#9 CC(C)N(CC#CC(O)(c1ccccc1)c1ccccc1)CCO
#10 CC(C)N(CC#CC(O)(c1ccccc1)c1ccccc1)C(C)C
#11 Cc1ccc(NC(=O)CSc2nnc([C@H](C)NC(=O)OC(C)(C)C)o2)c(C)c1
#12 Cc1cccc(NC(=O)CSc2nnc([C@H](C)NC(=O)OC(C)(C)C)o2)c1C

| assay / entry | 7 | 8 | 9 | 10 | 11 | 12 |
| --- | --- | --- | --- | --- | --- | --- |
| PDI inh | -1.1 | -3.4 | -1.6 | 3.3 | 4.0 | 6.9 |
| PglD DTNB | 10.5 | 0.2 | -1.0 | x | -7.7 | -1.9 |
| FGF22 binding | 0.1 | x | x | 0.1 | -0.3 | 0.2 |
| ARNT-TACC3 inh | -3.0 | 7.0 | -2.1 | 4.9 | 15.6 | -35.5 |
| ERp5 block | -6.9 | x | x | -0.9 | -2.0 | 2.0 |
| Yeast UUG start-1 | 200.2* | 321.8* | -12.9 | x | 214.5* | -8.5 |
| Yeast UUG start-2 | -0.8 | 2.9 | x | -5.8 | 2.9 | x |

#13 COc1ccc(S(=O)(=O)Nc2ccc3c(c2)C(=O)N([C@@H](C)CO)C[C@H](C)[C@H](CN(C)C)OCCCC[C@@H](C)O3)cc1
#14 C[C@@H]1CN([C@H](C)CO)C(=O)c2cc(NC(=O)C3CCCCC3)ccc2O[C@H]1CN(C)CC1CCCCC1
#15 C[C@@H]1CN([C@@H](C)CO)C(=O)c2cc(C#CC3CCCC3)cnc2O[C@H]1CN(C)C(=O)Nc1ccccc1
#16 C[C@H](CO)N1C[C@H](C)[C@@H](CN(C)Cc2cccnc2)Oc2ncc(C#CC3CCCCC3)cc2C1=O
#17 Cc1ccc(S(=O)(=O)N(C)C[C@@H]2OCCCC[C@H](C)Oc3ccc(NC(=O)Cc4ccccc4)cc3C(=O)N([C@H](C)CO)C[C@@H]2C)cc1
#18 COc1ccc(CN2CCN(C(=O)c3cccc4ccccc34)CC2)c(OC)c1OC

| assay / entry | 13 | 14 | 15 | 16 | 17 | 18 |
| --- | --- | --- | --- | --- | --- | --- |
| PDI inh | x | x | x | x | x | -3.5 |
| PglD DTNB | 2.7 | -6.8 | 3.9 | 1.4 | -7.0 | 6.6 |
| FGF22 binding | -0.3 | 0.0 | -0.2 | -0.2 | x | 0.1 |
| ARNT-TACC3 inh | -6.6 | 4.9 | 3.5 | x | -3.9 | 4.3 |
| ERp5 block | -0.2 | -5.7 | -4.9 | -1.8 | 3.3 | 0.4 |
| Yeast UUG start-1 | x | -1.2 | 156.9* | 141.2* | -11.6 | 146.0* |
| Yeast UUG start-2 | x | x | i | i | x | -1.4 |

#19 C[C@@H]1CN([C@H](C)CO)S(=O)(=O)c2ccc(C3=CCCCC3)cc2O[C@@H]1CN(C)C(=O)c1ccncc1
#20 C/C=C/c1cnc2c(c1)C(=O)N([C@@H](C)CO)C[C@H](C)[C@H](CN(C)S(=O)(=O)c1cn(C)cn1)O2
#21 O=C(NCC[C@H]1CC[C@@H](NS(=O)(=O)c2cccc(F)c2)[C@@H](CO)O1)c1cnccn1
#22 O=C(NCC[C@H]1CC[C@H](NS(=O)(=O)c2cccc(F)c2)[C@H](CO)O1)c1cnccn1
#23 O=C(Nc1ccc(Cl)cc1)N[C@H]1CC[C@@H](CCNC(=O)c2ccccc2F)O[C@H]1CO
#24 O=C(Nc1ccc(Cl)cc1)N[C@H]1CC[C@H](CCNC(=O)c2ccccc2F)O[C@H]1CO

| assay / entry | 19 | 20 | 21 | 22 | 23 | 24 |
| --- | --- | --- | --- | --- | --- | --- |
| PDI inh | x | x | x | x | x | x |
| PglD DTNB | -1.9 | 2.1 | -0.6 | -0.3 | 0.2 | 6.8 |
| FGF22 binding | -0.3 | -0.3 | -0.2 | 0.0 | -0.3 | -0.3 |
| ARNT-TACC3 inh | 5.5 | -2.6 | -9.9 | -10.1 | -3.0 | -26.5 |
| ERp5 block | 2.9 | 0.8 | 2.6 | -2.4 | -1.1 | -2.1 |
| Yeast UUG start-1 | -6.4 | x | 90.2 | 112.9* | 3.1 | 91.3* |
| Yeast UUG start-2 | x | x | x | i | x | i |

In the list so far, these contain a tert-butyl group.
#11 Cc1ccc(NC(=O)CSc2nnc([C@H](C)NC(=O)OC(C)(C)C)o2)c(C)c1
#12 Cc1cccc(NC(=O)CSc2nnc([C@H](C)NC(=O)OC(C)(C)C)o2)c1C

| assay / entry | 11 | 12 |
| --- | --- | --- |
| PDI inh | 4.0 | 6.9 |
| PglD DTNB | -7.7 | -1.9 |
| FGF22 binding | -0.3 | 0.2 |
| ARNT-TACC3 inh | 15.6 | -35.5 |
| ERp5 block | -2.0 | 2.0 |
| Yeast UUG start-1 | 214.5* | -8.5 |
| Yeast UUG start-2 | 2.9 | x |

Continuation:
#25 O=C(NCC[C@@H]1CC[C@H](NC(=O)c2cnccn2)[C@@H](CO)O1)Nc1ccc(F)cc1
#26 Cc1ccc(-c2nn(-c3ccccc3)cc2/C=C2\SC(=S)N(CC(=O)O)C2=O)cc1
#27 COc1ccc(-c2nn(-c3ccccc3)cc2/C=C2/SC(=S)N(CCC(=O)O)C2=O)cc1
#28 C[C@H]1CN([C@@H](C)CO)S(=O)(=O)c2ccc(C#CC3CCCC3)cc2O[C@H]1CN(C)Cc1cccnc1
#29 CC(C)C#Cc1ccc2c(c1)O[C@@H](CN(C)Cc1cccnc1)[C@H](C)CN([C@@H](C)CO)S2(=O)=O
#30 Cn1c(C(=O)O)c(CC(=O)Nc2ccc3c(c2)OCCO3)c2ccccc21

| assay / entry | 25 | 26 | 27 | 28 | 29 | 30 |
| --- | --- | --- | --- | --- | --- | --- |
| PDI inh | x | -4.2 | -3.8 | x | x | -2.0 |
| PglD DTNB | -2.6 | -1.5 | -19.0 | 1.1 | 1.7 | 3.9 |
| FGF22 binding | 0.0 | x | 0.1 | -0.3 | 0.0 | x |
| ARNT-TACC3 inh | -7.2 | 2.6 | 11.4 | 0.7 | 2.6 | 4.8 |
| ERp5 block | -8.4 | 1.6 | -1.0 | -2.9 | 4.2 | x |
| Yeast UUG start-1 | 158.6* | 527.0* | 6.4 | 141.8* | 72.2* | -47.3 |
| Yeast UUG start-2 | i | 1.8 | x | i | i | x |

#31 Cn1nc(CC(=O)Nc2ccc(N3CCN(C(=O)OC(C)(C)C)CC3)cc2)c2ccccc2c1=O
#32 Cn1nc(CC(=O)NCc2cccc3ccccc23)c2ccccc2c1=O
#33 Cn1nc(CC(=O)Nc2ccc3c(c2)OCCO3)c2ccccc2c1=O
#34 Cn1nc(CC(=O)Nc2cccc(O)c2)c2ccccc2c1=O
#35 Cn1nc(CC(=O)Nc2ccc(Oc3ccccc3)cc2)c2ccccc2c1=O
#36 CC(C)(C)OC(=O)N1CCN(c2ccc(NC(=O)Cn3nnc(-c4ccccc4)n3)cc2)CC1

| assay / entry | 31 | 32 | 33 | 34 | 35 | 36 |
| --- | --- | --- | --- | --- | --- | --- |
| PDI inh | -16.6 | 4.7 | -2.5 | x | x | 3.3 |
| PglD DTNB | 3.7 | -1.3 | x | x | x | 0.1 |
| FGF22 binding | x | x | x | x | x | x |
| ARNT-TACC3 inh | -3.4 | -11.1 | x | x | x | x |
| ERp5 block | x | x | x | x | x | x |
| Yeast UUG start-1 | 736.2* | -16.1 | x | x | x | -2.7 |
| Yeast UUG start-2 | 3.6 | x | -2.1 | i | i | x |

#37 O=C(NCC1CC1)[C@H]1[C@H](CO)[C@H]2Cn3c(cccc3=O)[C@@H]1N2C(=O)c1ccc(F)cc1
#38 Cc1ccc(NC(=O)Cc2nn(C)c(=O)c3ccccc23)cc1F
#39 CC1CCCCC1NC(=O)/C(C#N)=C/c1ccccc1F (centres undefined)
#40 C[C@@H]1CN([C@@H](C)CO)C(=O)c2cc(NS(=O)(=O)c3ccccc3)ccc2O[C@@H]1CN(C)S(C)(=O)=O
#41 N#C/C(=C\Nc1ccc2c(c1)OCCO2)C(=O)NCc1ccco1
#42 COc1ccccc1-c1ccc([C@@H]2[C@@H](CO)N(C(=O)C3CCC3)[C@H]2C#N)cc1
#43 O=C(CNC(=O)c1cccc(F)c1)OCC(=O)N1CCN(C(=O)c2ccco2)CC1
#44 COC(C#CCCN(C)C)(c1ccccc1)c1ccccc1

| assay / entry | 37 | 38 | 39 | 40 | 41 | 42 | 43 | 44 |
| --- | --- | --- | --- | --- | --- | --- | --- | --- |
| PDI inh | x | -3.5 | 6.1 | x | -1.8 | x | 0.7 | 22.7 |
| PglD DTNB | 0.0 | 2.6 | 0.4 | 1.9 | -3.4 | -7.8 | 6.6 | x |
| FGF22 binding | 0.1 | x | 0.0 | 0.6 | 0.0 | -0.1 | 41.6 | x |
| ARNT-TACC3 inh | -4.5 | -18.5 | x | -5.6 | -4.0 | 10.9 | 3.1 | -2.5 |
| ERp5 block | 2.4 | x | 0.5 | 2.1 | 2.0 | 2.4 | 0.3 | x |
| Yeast UUG start-1 | x | 0.5 | 221.7* | -11.6 | 102.2* | 0.9 | 213.1* | x |
| Yeast UUG start-2 | x | 15.6 | -14.0 | x | -3.7 | x | -2.1 | -2.7 |

Two compounds drawn at random from those above, as already listed:
#12 Cc1cccc(NC(=O)CSc2nnc([C@H](C)NC(=O)OC(C)(C)C)o2)c1C
#19 C[C@@H]1CN([C@H](C)CO)S(=O)(=O)c2ccc(C3=CCCCC3)cc2O[C@@H]1CN(C)C(=O)c1ccncc1

| assay / entry | 12 | 19 |
| --- | --- | --- |
| PDI inh | 6.9 | x |
| PglD DTNB | -1.9 | -1.9 |
| FGF22 binding | 0.2 | -0.3 |
| ARNT-TACC3 inh | -35.5 | 5.5 |
| ERp5 block | 2.0 | 2.9 |
| Yeast UUG start-1 | -8.5 | -6.4 |
| Yeast UUG start-2 | x | x |
